# Yeast mating assay 2: variants of the scFv Ab-95

Target: peptide PDVDLGDISGINAS, taken from heptad repeat 2 (HR2) of SARS-CoV-2 spike.

The variants keep the heavy chain, the linker and the frameworks of Ab-95 (scFv order VH, a (GGGGS)3 linker, VL).
VH: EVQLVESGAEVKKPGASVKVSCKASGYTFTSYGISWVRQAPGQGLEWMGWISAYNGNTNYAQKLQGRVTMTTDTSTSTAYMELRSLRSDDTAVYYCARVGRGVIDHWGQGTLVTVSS
VL: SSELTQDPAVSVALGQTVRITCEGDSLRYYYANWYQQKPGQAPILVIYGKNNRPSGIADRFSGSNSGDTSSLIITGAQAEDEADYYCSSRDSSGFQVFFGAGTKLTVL

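Phage display of a naive human antibody library on the peptide gave the parent. The library (AAYL52) carries one to three amino acid substitutions per variant, with no insertions or deletions. The assay is AlphaSeq: two haploid yeast populations carry antibody and antigen on their surface. Binding brings cells together so that they mate, and sequencing counts the barcode pairs among the diploids. Each replicate has its own calibration line, from reference interactions of the BCL2 family. There are three technical replicates.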

The parent's light chain CDRs are EGDSLRYYYAN, GKNNRPS, SSRDSSGFQVF; each variant's own CDRs replace them letter for letter. Scale: log10 of Kd in nM, estimated from mating counts; low values are strong binders. An entry "nd" has no value in the source: the pair was not observed among the diploids in that replicate. This suggests poor binding but is not conclusive. Background: pairings of library AAYL52 with three empty control strains gave a value in 28% of cases (median 3.91, 5th percentile 2.90). Values in that range, when seen in few replicates, are hard to tell from nonspecific mating. Also given: how often the same scFv was detected with the empty control strains, with their mean in brackets.

{"CDR-L1": "EGDCLRYYYAN", "CDR-L2": "GKNNRPS", "CDR-L3": "SSRMSIGFQVF", "log10 Kd, replicates": "nd / nd / nd", "signal with controls": "2 of 9 (3.99)"}
{"CDR-L1": "EGDSLRYYYAN", "CDR-L2": "GKNKRPS", "CDR-L3": "SSRWSSGFQVK", "log10 Kd, replicates": "2.97 / nd / nd", "signal with controls": "0 of 9"}
{"CDR-L1": "EGDSLRYYYAN", "CDR-L2": "GDNKRPS", "CDR-L3": "SSRDDSGFQVF", "log10 Kd, replicates": "1.94 / 1.96 / 1.50", "signal with controls": "3 of 9 (3.77)"}
{"CDR-L1": "EGDSLRQYYQN", "CDR-L2": "GKNNRPS", "CDR-L3": "HSRDSSGFQVF", "log10 Kd, replicates": "nd / nd / nd", "signal with controls": "0 of 9"}
{"CDR-L1": "EGYSCRYYYAN", "CDR-L2": "GKNNRPS", "CDR-L3": "SSRDSSGWQVF", "log10 Kd, replicates": "nd / 4.18 / nd", "signal with controls": "5 of 9 (4.16)"}
{"CDR-L1": "EGDSLRYYYAN", "CDR-L2": "SKNNRPS", "CDR-L3": "SSRVSSGFQVF", "log10 Kd, replicates": "nd / nd / nd", "signal with controls": "0 of 9"}
{"CDR-L1": "EGDRLRYYYAN", "CDR-L2": "GKNNRPS", "CDR-L3": "SSRDLSGEQVF", "log10 Kd, replicates": "3.23 / 2.98 / nd", "signal with controls": "4 of 9 (4.29)"}
{"CDR-L1": "EGDSLRYYYMN", "CDR-L2": "GKNNRCS", "CDR-L3": "SSRDSSGFQFF", "log10 Kd, replicates": "nd / nd / nd", "signal with controls": "2 of 9 (4.54)"}
{"CDR-L1": "EMDTLDYYYAN", "CDR-L2": "GKNNRPS", "CDR-L3": "SSRDSSGFQVF", "log10 Kd, replicates": "3.79 / 3.43 / 4.56", "signal with controls": "1 of 9 (3.84)"}
{"CDR-L1": "IGDSLRYNYAN", "CDR-L2": "GKNNRPS", "CDR-L3": "SWRDSSGFQVF", "log10 Kd, replicates": "3.24 / 2.88 / 3.91", "signal with controls": "0 of 9"}
{"CDR-L1": "EHDSLRYYKAN", "CDR-L2": "GKNNRGS", "CDR-L3": "SSRDSSGFQVF", "log10 Kd, replicates": "nd / nd / nd", "signal with controls": "2 of 9 (3.40)"}
{"CDR-L1": "EGDSLRYYYAN", "CDR-L2": "GKNRRPS", "CDR-L3": "SSRCSSGFQVF", "log10 Kd, replicates": "4.50 / nd / 3.13", "signal with controls": "4 of 9 (4.28)"}
{"CDR-L1": "EVDSLRYYYAN", "CDR-L2": "GKNNRPS", "CDR-L3": "SSRDSSTAQVF", "log10 Kd, replicates": "2.58 / 2.90 / 2.15", "signal with controls": "2 of 9 (4.07)"}
{"CDR-L1": "CGDSLFYYYAN", "CDR-L2": "GKNNRPS", "CDR-L3": "SSRDSSGFQVL", "log10 Kd, replicates": "5.66 / nd / nd", "signal with controls": "3 of 9 (4.19)"}
{"CDR-L1": "EGDSLRYYYAN", "CDR-L2": "GKNRRPL", "CDR-L3": "VSRDSSGFQVF", "log10 Kd, replicates": "3.18 / 3.62 / 3.10", "signal with controls": "2 of 9 (3.84)"}
{"CDR-L1": "EGDSLRYAYAN", "CDR-L2": "GKNNRPS", "CDR-L3": "SSRRGSGFQVF", "log10 Kd, replicates": "2.29 / 1.84 / 1.67", "signal with controls": "1 of 9 (5.05)"}
{"CDR-L1": "EGDSLNYWYAN", "CDR-L2": "GKNNRPS", "CDR-L3": "SSRDISGFQVF", "log10 Kd, replicates": "2.07 / 2.00 / 1.84", "signal with controls": "3 of 9 (4.20)"}
{"CDR-L1": "EGRSLYYYYAN", "CDR-L2": "GKNNRPS", "CDR-L3": "SSRDSSYFQVF", "log10 Kd, replicates": "3.02 / 3.62 / 2.93", "signal with controls": "4 of 9 (4.13)"}
{"CDR-L1": "EGDSLRYYYCN", "CDR-L2": "GKNNRPS", "CDR-L3": "SSRDSSGMQVK", "log10 Kd, replicates": "4.12 / 3.50 / 4.28", "signal with controls": "1 of 9 (4.51)"}
{"CDR-L1": "EGDSLRYYYAN", "CDR-L2": "HKNNRPS", "CDR-L3": "TSRDYSGFQVF", "log10 Kd, replicates": "3.17 / nd / 4.66", "signal with controls": "6 of 9 (4.30)"}
{"CDR-L1": "RGDSLRYWYAN", "CDR-L2": "GKNNRPS", "CDR-L3": "SSRVSSGFQVF", "log10 Kd, replicates": "2.82 / 3.32 / 2.58", "signal with controls": "4 of 9 (3.59)"}
{"CDR-L1": "EGTSLRYYYAN", "CDR-L2": "GKNNRPS", "CDR-L3": "SSSDSSEFQVF", "log10 Kd, replicates": "3.79 / 3.68 / 4.96", "signal with controls": "6 of 9 (4.26)"}
{"CDR-L1": "EGDSLRYYYAN", "CDR-L2": "GKNNRDS", "CDR-L3": "SSRWSSGFYVF", "log10 Kd, replicates": "3.83 / 4.08 / 2.53", "signal with controls": "4 of 9 (4.05)"}
{"CDR-L1": "EGDVLRYWYAN", "CDR-L2": "GKQNRPS", "CDR-L3": "SSRDSSGFQVF", "log10 Kd, replicates": "nd / 3.58 / 3.71", "signal with controls": "3 of 9 (4.19)"}
{"CDR-L1": "EGDELRYTYAN", "CDR-L2": "GKNNRPS", "CDR-L3": "SSRDSQGFQVF", "log10 Kd, replicates": "3.21 / 3.08 / 3.30", "signal with controls": "2 of 9 (3.95)"}
{"CDR-L1": "EGHSLNYYYAN", "CDR-L2": "GKNNRPS", "CDR-L3": "SSRDSSGFQTF", "log10 Kd, replicates": "1.91 / 1.93 / 1.53", "signal with controls": "2 of 9 (3.55)"}
{"CDR-L1": "NGDSLRYDYAN", "CDR-L2": "GKNERPS", "CDR-L3": "SSRDSSGFQVF", "log10 Kd, replicates": "1.71 / 1.66 / 1.27", "signal with controls": "5 of 9 (4.14)"}
{"CDR-L1": "EGDSLRYYYAN", "CDR-L2": "GQNNRPS", "CDR-L3": "ESRDSSGIQVF", "log10 Kd, replicates": "2.78 / 2.75 / 2.59", "signal with controls": "0 of 9"}
{"CDR-L1": "EGDSLRYYYAN", "CDR-L2": "GKNNRPS", "CDR-L3": "KVRDVSGFQVF", "log10 Kd, replicates": "nd / nd / nd", "signal with controls": "0 of 9"}
{"CDR-L1": "EGDSLRYYYCN", "CDR-L2": "GTNNRPS", "CDR-L3": "SYRDSSGFQVF", "log10 Kd, replicates": "nd / nd / nd", "signal with controls": "2 of 9 (4.50)"}

For reference, 4 entries of the list once more:

CDR-L1	CDR-L2	CDR-L3	log10 Kd, replicates	signal with controls
EGDVLRYWYAN	GKQNRPS	SSRDSSGFQVF	nd / 3.58 / 3.71	3 of 9 (4.19)
NGDSLRYDYAN	GKNERPS	SSRDSSGFQVF	1.71 / 1.66 / 1.27	5 of 9 (4.14)
EMDTLDYYYAN	GKNNRPS	SSRDSSGFQVF	3.79 / 3.43 / 4.56	1 of 9 (3.84)
EGRSLYYYYAN	GKNNRPS	SSRDSSYFQVF	3.02 / 3.62 / 2.93	4 of 9 (4.13)

Parent in this assay: reference entry 2.31, copy in this library 2.25.

Data: MIT Lincoln Laboratory AlphaSeq set, Engelhart et al. 2022, doi:10.1038/s41597-022-01779-4, as distributed in FLAb.